Test results taken from patent publication US8959984B2, “Proteome-wide quantification of small molecule binding to cellular target proteins” (priority 2007, dated 2015).

Sequences of proteins named here, by UniProt entry; tags and fusion partners are left off. A change or cut given only in a name is not applied to a line headed by its entry.
UniProt P07947, whole entry: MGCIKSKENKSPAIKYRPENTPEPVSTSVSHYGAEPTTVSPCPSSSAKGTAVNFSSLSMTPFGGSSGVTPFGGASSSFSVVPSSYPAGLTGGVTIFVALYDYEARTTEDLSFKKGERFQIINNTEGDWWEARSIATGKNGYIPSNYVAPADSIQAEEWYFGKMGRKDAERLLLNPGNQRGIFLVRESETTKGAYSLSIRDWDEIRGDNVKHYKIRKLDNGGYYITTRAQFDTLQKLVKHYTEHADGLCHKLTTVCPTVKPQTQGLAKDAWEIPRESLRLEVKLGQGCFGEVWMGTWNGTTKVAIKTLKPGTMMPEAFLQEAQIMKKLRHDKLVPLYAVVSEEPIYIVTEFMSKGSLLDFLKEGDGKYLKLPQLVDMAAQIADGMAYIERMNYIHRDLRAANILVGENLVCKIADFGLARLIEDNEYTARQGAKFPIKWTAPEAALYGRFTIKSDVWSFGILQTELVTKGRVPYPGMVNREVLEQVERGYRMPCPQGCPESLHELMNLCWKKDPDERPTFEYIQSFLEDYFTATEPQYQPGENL
UniProt Q6XUX3: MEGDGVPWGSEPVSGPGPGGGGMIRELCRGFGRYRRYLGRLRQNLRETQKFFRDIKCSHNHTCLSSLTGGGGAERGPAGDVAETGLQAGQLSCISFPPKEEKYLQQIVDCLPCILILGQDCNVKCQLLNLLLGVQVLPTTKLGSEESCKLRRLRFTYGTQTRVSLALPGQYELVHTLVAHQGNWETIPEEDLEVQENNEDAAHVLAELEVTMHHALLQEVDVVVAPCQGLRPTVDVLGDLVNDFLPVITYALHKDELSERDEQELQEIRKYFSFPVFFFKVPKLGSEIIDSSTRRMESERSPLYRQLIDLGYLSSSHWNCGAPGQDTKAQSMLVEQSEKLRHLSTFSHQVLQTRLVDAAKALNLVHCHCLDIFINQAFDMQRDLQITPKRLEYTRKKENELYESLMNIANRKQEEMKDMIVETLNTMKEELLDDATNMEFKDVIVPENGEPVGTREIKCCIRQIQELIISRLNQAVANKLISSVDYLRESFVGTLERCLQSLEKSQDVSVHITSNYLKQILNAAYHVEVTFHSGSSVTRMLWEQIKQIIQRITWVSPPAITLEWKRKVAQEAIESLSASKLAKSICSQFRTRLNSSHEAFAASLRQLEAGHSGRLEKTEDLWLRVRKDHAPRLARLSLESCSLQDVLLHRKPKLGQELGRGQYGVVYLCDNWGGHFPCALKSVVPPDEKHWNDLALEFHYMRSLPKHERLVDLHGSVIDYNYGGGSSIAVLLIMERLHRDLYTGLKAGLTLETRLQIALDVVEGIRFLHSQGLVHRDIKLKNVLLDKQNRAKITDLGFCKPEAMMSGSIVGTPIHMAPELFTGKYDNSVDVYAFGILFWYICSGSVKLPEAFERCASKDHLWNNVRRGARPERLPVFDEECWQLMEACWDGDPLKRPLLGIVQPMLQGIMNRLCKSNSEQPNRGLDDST
UniProt Q99714: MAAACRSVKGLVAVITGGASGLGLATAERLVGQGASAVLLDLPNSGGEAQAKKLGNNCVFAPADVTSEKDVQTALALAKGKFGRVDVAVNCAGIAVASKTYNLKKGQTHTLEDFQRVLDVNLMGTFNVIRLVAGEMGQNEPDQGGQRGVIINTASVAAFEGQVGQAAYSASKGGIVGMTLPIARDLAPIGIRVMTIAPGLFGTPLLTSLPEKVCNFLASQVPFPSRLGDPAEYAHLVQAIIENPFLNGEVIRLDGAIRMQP

How the values were obtained:
Assay in all cases: Ki determination for immobilized VI16742: two consecutive incubations, control beads, ligand concentration and incubation time controls (Tables 7, 8)
Format in all cases: binding
[1] = biological target: cellular target proteins in HeLa cell lysate (Homo sapiens, UniProt P07947); details: Ki (VI16742), YES (YES1) IPI00013981
[2] = biological target: cellular target proteins in HeLa cell lysate (Homo sapiens, UniProt Q6XUX3); details: Ki (VI16742), SgK496 (RIPK5) IPI00465346
[3] = biological target: T1, cellular target proteins in HeLa cell lysate (Homo sapiens, UniProt Q8IVH8); details: Ki (VI16742), KHS2 (MAP4K3) IPI00217024
T1 sequence (Q8IVH8 1-894): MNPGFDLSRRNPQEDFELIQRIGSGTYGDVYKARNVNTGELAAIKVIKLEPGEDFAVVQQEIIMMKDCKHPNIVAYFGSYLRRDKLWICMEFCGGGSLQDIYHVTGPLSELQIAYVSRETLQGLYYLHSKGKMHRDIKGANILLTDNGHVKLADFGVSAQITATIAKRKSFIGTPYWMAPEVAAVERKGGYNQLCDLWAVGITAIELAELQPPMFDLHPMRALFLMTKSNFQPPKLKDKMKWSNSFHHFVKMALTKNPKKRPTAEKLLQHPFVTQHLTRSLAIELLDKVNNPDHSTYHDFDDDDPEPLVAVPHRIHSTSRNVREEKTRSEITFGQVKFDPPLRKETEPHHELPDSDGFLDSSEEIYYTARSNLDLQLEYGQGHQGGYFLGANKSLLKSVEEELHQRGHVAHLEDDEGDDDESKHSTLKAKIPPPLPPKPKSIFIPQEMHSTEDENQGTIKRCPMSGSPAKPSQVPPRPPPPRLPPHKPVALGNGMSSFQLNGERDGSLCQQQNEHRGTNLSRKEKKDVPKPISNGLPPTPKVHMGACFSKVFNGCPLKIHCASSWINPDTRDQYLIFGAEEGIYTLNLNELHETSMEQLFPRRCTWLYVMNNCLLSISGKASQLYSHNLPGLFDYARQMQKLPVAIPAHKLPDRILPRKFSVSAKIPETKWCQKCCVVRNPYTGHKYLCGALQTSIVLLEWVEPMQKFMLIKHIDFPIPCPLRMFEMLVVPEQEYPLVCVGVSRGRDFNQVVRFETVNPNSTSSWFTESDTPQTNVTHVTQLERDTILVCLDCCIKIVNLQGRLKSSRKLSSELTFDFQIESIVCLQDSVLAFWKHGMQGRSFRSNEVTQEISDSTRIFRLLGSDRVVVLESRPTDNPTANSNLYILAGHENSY

[4] = biological target: cellular target proteins in HeLa cell lysate (Homo sapiens, UniProt Q99714); details: Ki (VI16742), HSD17B10 IPI00017726
[5] = biological target: T2, cellular target proteins in HeLa cell lysate (Homo sapiens, UniProt Q9NRH2)
T2 sequence (Q9NRH2 1-765): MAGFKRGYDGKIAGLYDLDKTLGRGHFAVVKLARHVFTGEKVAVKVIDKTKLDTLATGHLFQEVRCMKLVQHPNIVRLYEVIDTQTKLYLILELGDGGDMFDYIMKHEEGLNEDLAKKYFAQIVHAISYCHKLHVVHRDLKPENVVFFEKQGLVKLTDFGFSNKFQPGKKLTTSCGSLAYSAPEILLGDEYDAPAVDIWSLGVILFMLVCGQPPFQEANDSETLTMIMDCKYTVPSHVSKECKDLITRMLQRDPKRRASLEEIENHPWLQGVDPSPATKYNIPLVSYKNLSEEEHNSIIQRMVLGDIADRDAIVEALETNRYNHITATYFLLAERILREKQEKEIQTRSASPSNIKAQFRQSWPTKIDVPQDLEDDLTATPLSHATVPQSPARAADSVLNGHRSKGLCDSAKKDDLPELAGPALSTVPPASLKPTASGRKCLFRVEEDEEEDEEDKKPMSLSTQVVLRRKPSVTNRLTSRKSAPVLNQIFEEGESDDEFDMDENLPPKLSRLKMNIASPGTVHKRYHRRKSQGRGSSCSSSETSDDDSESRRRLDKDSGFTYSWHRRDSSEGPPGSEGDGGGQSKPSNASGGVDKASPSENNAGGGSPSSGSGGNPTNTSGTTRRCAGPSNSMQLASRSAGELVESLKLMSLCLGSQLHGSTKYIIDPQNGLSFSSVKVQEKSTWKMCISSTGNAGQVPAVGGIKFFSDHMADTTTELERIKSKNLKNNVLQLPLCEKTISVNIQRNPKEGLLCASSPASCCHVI

## CC(C)n1c(=O)ccc2cnc(Nc3ccc(OCCN)cc3)nc21 [V16742]
[1]
  Ki: 34.2 µM
[2]
  Ki: 15.8 µM
[3]
  Ki: 16.6 µM
[4]
  Ki: 54.5 µM
[5]
  Ki: 60.7 µM
